Our source for the IC50 values is BindingDB's records for PubMed 39708769 (Nanjing University of Chinese Medicine).

The chains behind the UniProt entries cited, without tags or fusion partners.
UniProt Q07817, whole entry: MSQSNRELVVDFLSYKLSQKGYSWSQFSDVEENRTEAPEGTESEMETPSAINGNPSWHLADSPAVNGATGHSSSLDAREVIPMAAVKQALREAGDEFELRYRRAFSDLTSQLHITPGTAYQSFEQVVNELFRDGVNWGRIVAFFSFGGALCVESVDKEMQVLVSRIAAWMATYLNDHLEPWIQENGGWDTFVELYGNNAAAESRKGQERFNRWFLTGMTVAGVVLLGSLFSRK

The target of this test is Bcl-2-like protein 1 (Homo sapiens, UniProt Q07817).

The IC50 is the concentration that gives 50% inhibition. High values mean weaker potency in that assay, low ones greater potency in that assay. `Cc1cc2c(C(=O)NC[C@@H](C)c3ccccc3)c(O)c(O)cc2c(O)c1-c1c(C)cc2c(C(=O)NC[C@H](C)c3ccccc3)c(O)c(O)cc2c1O` had an IC50 of 310 nM.
